The values below are quoted from earlier work in article PMC4358770 (Journal of medicinal chemistry, 2010).

Chains of the proteins cited; added tags and fusions are not shown. Residues count along the entry.
UniProt P19111, 20-533: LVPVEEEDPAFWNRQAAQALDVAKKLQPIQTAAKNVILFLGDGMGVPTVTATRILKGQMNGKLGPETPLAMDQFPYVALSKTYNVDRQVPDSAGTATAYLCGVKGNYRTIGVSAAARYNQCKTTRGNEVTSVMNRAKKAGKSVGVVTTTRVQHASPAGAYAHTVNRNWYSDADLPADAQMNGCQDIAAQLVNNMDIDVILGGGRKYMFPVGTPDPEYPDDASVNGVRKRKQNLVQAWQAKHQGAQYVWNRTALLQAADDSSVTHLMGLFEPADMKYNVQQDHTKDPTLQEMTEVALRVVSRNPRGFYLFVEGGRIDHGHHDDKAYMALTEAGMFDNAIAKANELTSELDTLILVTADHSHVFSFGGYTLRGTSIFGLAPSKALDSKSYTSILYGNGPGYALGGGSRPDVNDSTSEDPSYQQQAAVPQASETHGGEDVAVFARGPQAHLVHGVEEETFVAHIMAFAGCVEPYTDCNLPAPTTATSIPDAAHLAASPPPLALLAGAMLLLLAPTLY

This series concerns the target calf intestine alkaline phosphatase (Bos taurus, UniProt P19111). Conditions: cited from earlier work.

For the substance “2-MeS-α-borano-ATP (A-isomer) [analogue 4A]”, the “amount remaining with alkaline phosphatase” value (after 100 min) is on record as “only traces”. Under “within 12 min at 37 °C”, the “hydrolysis by alkaline phosphatase” value is reported as 60%.
